Data on 32 substances can be found in PMC4596520.

Protein sequences, listed by entry. Tags and fused reporters are not part of them. Residues count along the entry.
UniProt P12318, 34-217 H167R: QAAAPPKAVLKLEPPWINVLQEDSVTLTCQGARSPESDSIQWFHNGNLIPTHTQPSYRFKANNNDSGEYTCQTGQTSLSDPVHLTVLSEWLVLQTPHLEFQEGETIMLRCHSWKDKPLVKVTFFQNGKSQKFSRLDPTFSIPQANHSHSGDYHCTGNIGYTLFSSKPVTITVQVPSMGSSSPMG
UniProt P12314, 16-292: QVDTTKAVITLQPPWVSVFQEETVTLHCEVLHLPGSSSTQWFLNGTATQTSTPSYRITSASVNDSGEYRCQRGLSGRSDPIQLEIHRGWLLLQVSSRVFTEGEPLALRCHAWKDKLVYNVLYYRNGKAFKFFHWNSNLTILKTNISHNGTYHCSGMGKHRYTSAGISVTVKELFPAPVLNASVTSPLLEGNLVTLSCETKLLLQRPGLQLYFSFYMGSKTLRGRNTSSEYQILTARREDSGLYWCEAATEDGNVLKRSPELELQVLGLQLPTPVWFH

Test in all cases: SPR
Background: In SPR one partner is held on a chip, and binding of the other changes the refractive index at the surface.

The target in assay [1] is hexa-His-tagged recombinant soluble human Fcγ receptor IIIa, 158V.
In assay [2] the target is hexa-His-tagged recombinant soluble human Fcγ receptor IIIb. Conditions: read off a plot.
The target in assay [3] is hexa-His-tagged recombinant soluble human Fcγ receptor IIIa, 158F (UniProt P08637). Conditions: read off a plot.
In assay [4] the target is hexa-His-tagged recombinant soluble human Fcγ receptor IIa, 134R (UniProt P12318). Conditions: parent: est. 12; read off a plot.
For assay [5], the target named is hexa-His-tagged recombinant soluble human Fcγ receptor I (UniProt P12314). Conditions: parent: est. 2.3; read off a plot.
Where [6] appears, read: parent: est. 8.0, read off a plot.
Where [7] appears, read: parent: est. 26, read off a plot.

“nonfucosylated anti-CD20 chimeric IgG1 rituximab with a wild-type Fc region Y296P”: in assay [1] (setting [6]), the Kd – broadly, the concentration at which binding is half-saturated – is 62 ×10^-8 M.

With “nonfucosylated anti-CD20 chimeric IgG1 rituximab with a wild-type Fc region Y296F”, the Kd was 3.5 ×10^-7 M in assay [2] (parent: est. 2.5) and 10 ×10^-8 M in assay [1] (setting [6]).

As to “fucosylated anti-CD20 chimeric IgG1 rituximab with a wild-type Fc region Y296I”, the Kd in assay [2] (parent: est. 19) is 20 ×10^-7 M; in assay [1] (setting [7]), 42 ×10^-8 M; in assay [3] (parent: est. 17), 26 ×10^-7 M.

Take “fucosylated anti-CD20 chimeric IgG1 rituximab with a wild-type Fc region Y296S”: the Kd is 20 ×10^-7 M in assay [2] (parent: est. 19) and 50 ×10^-8 M in assay [1] (setting [7]).

For the substance “fucosylated anti-CD20 chimeric IgG1 rituximab with a wild-type Fc region Y296D”, the dissociation constant Kd in assay [2] (parent: est. 19) was 28 ×10^-7 M; in assay [1] (setting [7]), 26 ×10^-8 M.

“nonfucosylated anti-CD20 chimeric IgG1 rituximab with a wild-type Fc region Y296C”: the dissociation constant Kd in assay [2] (parent: est. 2.5) is 14 ×10^-7 M; in assay [1] (setting [6]), 15 ×10^-8 M.

For the substance “nonfucosylated anti-CD20 chimeric IgG1 rituximab with a wild-type Fc region Y296V”, the results for the dissociation constant (Kd) in assay [2] (parent: est. 2.5) and in assay [1] (setting [6]) were 14 ×10^-7 M and 15 ×10^-8 M, respectively.

As for “nonfucosylated anti-CD20 chimeric IgG1 rituximab with a wild-type Fc region Y296E”, the Kd in assay [2] (parent: est. 2.5) was 17 ×10^-7 M; in assay [1] (setting [6]) it was 13 ×10^-8 M; in assay [4] it was 12 ×10^-7 M.

“nonfucosylated anti-CD20 chimeric IgG1 rituximab with a wild-type Fc region Y296D”: the Kd in assay [2] (parent: est. 2.5) is 12 ×10^-7 M; in assay [1] (setting [6]) it was 10 ×10^-8 M.

For “fucosylated anti-CD20 chimeric IgG1 rituximab with a wild-type Fc region Y296P”, the equilibrium dissociation constant (Kd) in assay [1] (parent: est. 26) is > 100 ×10^-8 M.

Consider “nonfucosylated anti-CD20 chimeric IgG1 rituximab with a wild-type Fc region Y296N”, for which the dissociation constant (Kd) was 14 ×10^-7 M in assay [2] (parent: est. 2.5) and 15 ×10^-8 M in assay [1] (setting [6]).

With “fucosylated anti-CD20 chimeric IgG1 rituximab with a wild-type Fc region Y296T”, the equilibrium dissociation constant (Kd) in assay [2] (parent: est. 19) is 19 ×10^-7 M; in assay [1] (setting [7]), 53 ×10^-8 M.

Regarding “fucosylated anti-CD20 chimeric IgG1 rituximab with a wild-type Fc region Y296E”, the Kd was 30 ×10^-7 M in assay [2] (parent: est. 19) and 31 ×10^-8 M in assay [1] (setting [7]).

On to “nonfucosylated anti-CD20 chimeric IgG1 rituximab with a wild-type Fc region Y296S”, for which the dissociation constant (Kd) in assay [2] (parent: est. 2.5) was 13 ×10^-7 M; in assay [1] (setting [6]), 19 ×10^-8 M.

Consider “fucosylated anti-CD20 chimeric IgG1 rituximab with a wild-type Fc region Y296G”, for which the dissociation constant (Kd) was 29 ×10^-7 M in assay [2] (parent: est. 19) and 70 ×10^-8 M in assay [1] (setting [7]).

“nonfucosylated anti-CD20 chimeric IgG1 rituximab with a wild-type Fc region Y296G”: the Kd in assay [2] (parent: est. 2.5) was 14 ×10^-7 M; in assay [1] (setting [6]), 29 ×10^-8 M; in assay [4], 12 ×10^-7 M; in assay [5], 2.9 ×10^-8 M; in assay [3] (parent: est. 5.0) it was 15 ×10^-7 M.

Take “nonfucosylated anti-CD20 chimeric IgG1 rituximab with a wild-type Fc region Y296I”: the Kd in assay [2] (parent: est. 2.5) is 15 ×10^-7 M; in assay [1] (setting [6]), 17 ×10^-8 M.

Turning to “nonfucosylated anti-CD20 chimeric IgG1 rituximab with a wild-type Fc region Y296H”, the Kd is 5 ×10^-7 M in assay [2] (parent: est. 2.5) and 10 ×10^-8 M in assay [1] (setting [6]).

On to “nonfucosylated anti-CD20 chimeric IgG1 rituximab with a wild-type Fc region Y296M”, for which the results for the dissociation constant Kd in assay [2] (parent: est. 2.5) and in assay [1] (setting [6]) were 14 ×10^-7 M and 16 ×10^-8 M, respectively.

“fucosylated anti-CD20 chimeric IgG1 rituximab with a wild-type Fc region Y296L”: the values for the Kd in assay [2] (parent: est. 19), in assay [1] (setting [7]) and in assay [3] (parent: est. 17) were 24 ×10^-7 M, 42 ×10^-8 M and 28 ×10^-7 M, respectively.

For the substance “fucosylated anti-CD20 chimeric IgG1 rituximab with a wild-type Fc region Y296N”, the Kd in assay [2] (parent: est. 19) was 22 ×10^-7 M; in assay [1] (setting [7]) it was 36 ×10^-8 M; in assay [3] (parent: est. 17) it was 23 ×10^-7 M.

Regarding “nonfucosylated anti-CD20 chimeric IgG1 rituximab with a wild-type Fc region Y296L”, the values for the Kd in assay [2] (parent: est. 2.5) and in assay [1] (setting [6]) were 14 ×10^-7 M and 18 ×10^-8 M, respectively.

Turning to “fucosylated anti-CD20 chimeric IgG1 rituximab with a wild-type Fc region Y296F”, the dissociation constant (Kd) was 20 ×10^-7 M in assay [2] (parent: est. 19) and 30 ×10^-8 M in assay [1] (setting [7]).

Regarding “fucosylated anti-CD20 chimeric IgG1 rituximab with a wild-type Fc region Y296V”, the dissociation constant (Kd) was 28 ×10^-7 M in assay [2] (parent: est. 19), 43 ×10^-8 M in assay [1] (setting [7]) and 29 ×10^-7 M in assay [3] (parent: est. 17).

Turning to “nonfucosylated anti-CD20 chimeric IgG1 rituximab with a wild-type Fc region Y296R”, the Kd in assay [2] (parent: est. 2.5) is 16 ×10^-7 M; in assay [1] (setting [6]), 25 ×10^-8 M; in assay [3] (parent: est. 5.0), 17 ×10^-7 M.

As to “fucosylated anti-CD20 chimeric IgG1 rituximab with a wild-type Fc region Y296R”, the equilibrium dissociation constant (Kd) in assay [2] (parent: est. 19) was 23 ×10^-7 M; in assay [1] (setting [7]), 68 ×10^-8 M.

Take “fucosylated anti-CD20 chimeric IgG1 rituximab with a wild-type Fc region Y296M”: the dissociation constant (Kd) in assay [2] (parent: est. 19) was 20 ×10^-7 M; in assay [1] (setting [7]) it was 42 ×10^-8 M; in assay [3] (parent: est. 17), 28 ×10^-7 M.

Regarding “fucosylated anti-CD20 chimeric IgG1 rituximab with a wild-type Fc region Y296Q”, the dissociation constant Kd is 20 ×10^-7 M in assay [2] (parent: est. 19) and 45 ×10^-8 M in assay [1] (setting [7]).

Consider “fucosylated anti-CD20 chimeric IgG1 rituximab with a wild-type Fc region Y296C”, for which the equilibrium dissociation constant (Kd) in assay [2] (parent: est. 19) is 19 ×10^-7 M; in assay [1] (setting [7]) it was 33 ×10^-8 M.

Take “fucosylated anti-CD20 chimeric IgG1 rituximab with a wild-type Fc region Y296H”: the Kd in assay [2] (parent: est. 19) is 26 ×10^-7 M; in assay [1] (setting [7]), 36 ×10^-8 M; in assay [3] (parent: est. 17), 22 ×10^-7 M.

Take “nonfucosylated anti-CD20 chimeric IgG1 rituximab with a wild-type Fc region Y296Q”: the values for the dissociation constant Kd in assay [2] (parent: est. 2.5) and in assay [1] (setting [6]) were 16 ×10^-7 M and 20 ×10^-8 M, respectively.

With “nonfucosylated anti-CD20 chimeric IgG1 rituximab with a wild-type Fc region Y296T”, the Kd was 15 ×10^-7 M in assay [2] (parent: est. 2.5) and 17 ×10^-8 M in assay [1] (setting [6]).
